High-throughput results deposited in PubChem by several laboratories.
Compounds with a hit are over-represented: about 2.1% of the library has one in this group of screens.
PDI turbidity – PDI (human) enzyme inhibition; P07237; hit rate 0.052% among 350,000; inhibition, % at 10 µM; PDI insulin aggregation turbidity, A650, 90 min;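 active means mean inhibition across replicates of 30% or more, whatever share of single replicates reach that level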
Yeast UUG start – alters start codon recognition fidelity in yeast; S. cerevisiae UUG-firefly luciferase reporter, luminescence/redox ratio; activity score, % at 18.7 µM; actives 0.13% (n = 350,000);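 active means replicate mean at a twofold rise or more, about +100% in these data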;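 further: firefly luciferase made from a UUG start codon reports start codon fidelity; reporter light over untreated wells divided by growth signal over untreated wells; some hits fall short of that in this replicate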
NR1D1 modulator – modulates human Rev-erb alpha binding to DNA | hit rate 0.79% among 370,000 | Rev-erbα–FITC-DNA binding, fluorescence polarization, 90 min | activity, % at 10 µM | P20393;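 active means activity above about 14%, limit read from the data; passing the limit was not always enough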;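 further: 0% = DMSO wells with 35 nM protein and 100% = DMSO wells with 750 nM protein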
GSIS activator – primary screen for activators of insulin secretion dependent on glucose, INS-1E cells, GLuc reporter luminescence | INS-1E GLuc reporter insulin secretion, 2-3 h | activation, % at 16.6 µM | hit rate 0.61% among 370,000;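 active means lowest replicate activation of at least 40%, so every replicate reaches that level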;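 further: 0% = median of neutral control wells and 100% = median of IBMX positive control wells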
SMARCA2 act – activators of SMARCA2 function | MG213 cells, MMTV-luciferase reporter, dexamethasone, overnight | AID 652017 | hit rate 1% among 370,000 | activation, % at 9.1 µM; in the data active means activation above about 7.8%;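 further: 0% = vehicle wells and 100% = reference activator wells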
ERp5 inh – ERp5 (human) disulfide isomerase inhibition | Q15084 | ERp5 insulin aggregation, absorbance 650 nm, 90 min | inhibition, % at 9.99 µM | hit rate 0.05% among 350,000 | AID 651711;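 active means mean replicate inhibition above about 25%, with every replicate also reaching it, limit read from the data, passing the limit was not always enough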
Rev-erbA confirm – Rev-erb alpha (human) modulation, hit confirmation. shares compounds with NR1D1 modulator. Rev-erb alpha FITC-DNA binding, fluorescence polarization, 90 min. activation, % at 25 µM. hit rate 61% among 3,000. AID 1259319;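 active means activation at or above a set limit, or at least 3 SD above the negative control mean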;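 further: 0% = 35 nM protein with DMSO and 100% = 750 nM protein high control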
RORg DNA counter – counter-screen for Rev-erb alpha modulators: RORgamma DNA binding; shares compounds with NR1D1 modulator; purified RORgamma protein-FITC-DNA binding, fluorescence polarization; IC50, µM; hit rate 8% among 910; AID 1259320;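 active means Compounds whose fitted half-maximal concentration for disrupting protein-DNA binding is below 10 micromolar; the record names Rev-erb in its text, so the target is in doubt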
An asterisk follows results filed as active.

Screening O=C(C[C@H]1CC[C@@H](NC(=O)CCN2CCCCC2)[C@H](CO)O1)NCc1ccc(Cl)c(Cl)c1 returned Yeast UUG start -5.8, GSIS activator 11.0 and ERp5 inh 2.1.
For CN(C)CC(=O)N1CC(=O)N2[C@H](CO)[C@@H](c3ccc(/C=C/c4ccccc4)cc3)[C@H]2C1 the results were GSIS activator 22.0 and ERp5 inh 2.8.
`C[C@H]1CN([C@@H](C)CO)S(=O)(=O)c2ccc(C3=CCCC3)cc2O[C@H]1CN(C)C(=O)c1cccnc1` gave Yeast UUG start -2.0, GSIS activator 25.7 and ERp5 inh 2.6.
For CCN(CC)S(=O)(=O)c1ccc(N2CCCCC2)c(NC(=O)C2CSC3(C)CCC(=O)N23)c1 (stereo not drawn) the results were PDI turbidity 9.0, Yeast UUG start -7.4, NR1D1 modulator 30.6*, GSIS activator -7.6, SMARCA2 act -2.1, ERp5 inh 3.0, Rev-erbA confirm 47.1* and RORg DNA counter >40.
CN(C)c1ccc(S(=O)(=O)N2CCCCC2)cc1NC(=O)C1CSC2(C)CCC(=O)N12 (stereo not drawn) was read as PDI turbidity 5.0, Yeast UUG start -15.0, NR1D1 modulator 3.4, GSIS activator -6.6, SMARCA2 act 0.1 and ERp5 inh -8.3.
Screening O=c1c2sc3nc(N4CCOCC4)c4c(c3c2ncn1C(c1ccccc1)c1ccccc1)CCCC4 returned PDI turbidity 2.7, Yeast UUG start -18.1, NR1D1 modulator 29.6*, GSIS activator 1.1, SMARCA2 act 1.0, ERp5 inh 8.9 and Rev-erbA confirm 26.8*.
Screening O=c1c2sc3nc(N4CCOCC4)c4c(c3c2ncn1-c1ccccc1)CCCC4 returned PDI turbidity -6.3, Yeast UUG start -7.1, NR1D1 modulator 3.2, GSIS activator 7.5, SMARCA2 act -4.4 and ERp5 inh 3.1.
Screening CCCN=C(C)c1c(-c2ccccc2)[nH]n(-c2nc3ccccc3s2)c1=O returned PDI turbidity -9.1, Yeast UUG start -11.3, NR1D1 modulator 58.0*, SMARCA2 act -0.8, Rev-erbA confirm 40.1* and RORg DNA counter 8.54*.
CCN(CC)CCCN=Cc1c(-c2ccccc2)[nH]n(-c2nc3ccccc3s2)c1=O was read as PDI turbidity -4.2, NR1D1 modulator 2.2, GSIS activator -14.0, SMARCA2 act 3.0 and ERp5 inh -3.7.
CC=Cc1ccc2n(c1=O)C[C@H]1[C@H](CO)[C@@H](C(=O)NCCC)[C@@H]2N1CC1CCCC1 (mixture of isomers) was read as GSIS activator -5.0 and ERp5 inh 0.1.
Screening O=C(c1cc2cc(Br)ccc2[nH]1)N1CCc2ccccc21 returned PDI turbidity 8.4, Yeast UUG start 4.3, NR1D1 modulator 48.9*, GSIS activator 10.8, SMARCA2 act -0.6, ERp5 inh 3.3, Rev-erbA confirm 53.7* and RORg DNA counter >40.
Screening Cc1ccc(S(=O)(=O)N[C@@H]2C=C[C@H](CC(=O)N3CCN(c4ccccc4)CC3)O[C@H]2CO)cc1 returned Yeast UUG start -6.3, GSIS activator -0.9 and ERp5 inh 1.8.
CC(=O)c1cc2c(cc1N/C(=N/S(=O)(=O)c1ccccc1)c1ccc(Cl)cc1)OCO2 was read as PDI turbidity 3.0, Yeast UUG start -16.6, NR1D1 modulator 89.8*, GSIS activator -10.0, SMARCA2 act -2.2, Rev-erbA confirm 47.8* and RORg DNA counter >40.
CC(=O)c1cc2c(cc1NC(=O)c1cccc(S(=O)(=O)N3CCN(C)CC3)c1)OCO2 was read as PDI turbidity -3.8, NR1D1 modulator 19.8*, GSIS activator -2.3, SMARCA2 act -0.5, ERp5 inh 2.3 and Rev-erbA confirm 5.2.
`Cc1cc(NS(=O)(=O)c2ccc(NC(=O)CSc3nc4ncc(Br)cc4[nH]3)cc2)nc(C)n1` gave PDI turbidity -4.6, Yeast UUG start -6.2, NR1D1 modulator -2.0, GSIS activator -15.4, SMARCA2 act -0.2 and ERp5 inh -3.5.
For Cc1cc(C)c(NC(=O)CSc2nc3ncc(Br)cc3[nH]2)c(Cl)c1 the results were PDI turbidity -6.9, Yeast UUG start -21.1, NR1D1 modulator 46.7*, GSIS activator -2.9, SMARCA2 act -1.3, ERp5 inh -13.1, Rev-erbA confirm 64.5* and RORg DNA counter inactive.
`Cc1ccc(NC(=O)CSc2nc3ncc(Br)cc3[nH]2)cc1C` gave PDI turbidity 1.3, Yeast UUG start -17.3, NR1D1 modulator 194.7*, GSIS activator 6.9, SMARCA2 act -1.7, ERp5 inh -0.2, Rev-erbA confirm 185.5* and RORg DNA counter >40.
Screening O=[N+]([O-])c1ccc2c(c1)Cc1cc(F)ccc1-2 returned PDI turbidity -0.6, Yeast UUG start -12.4, NR1D1 modulator 70.2*, GSIS activator 6.6, SMARCA2 act -3.3, ERp5 inh -3.5, Rev-erbA confirm 61.0* and RORg DNA counter >40.
O=C(Nc1ccc2c(c1)Cc1cc([N+](=O)[O-])ccc1-2)C(F)(F)F was read as PDI turbidity -1.5, Yeast UUG start 8.4, NR1D1 modulator 9.1, SMARCA2 act -1.2 and ERp5 inh 9.5.
For COc1cc2c(cc1[N+](=O)[O-])-c1ccc([N+](=O)[O-])cc1C2 the results were PDI turbidity 0.0, Yeast UUG start -8.5, NR1D1 modulator 89.6*, SMARCA2 act 0.4, ERp5 inh -0.7 and Rev-erbA confirm 12.4*.
CCCC(=O)Nc1ccc2c(c1)C(=O)N(C)C[C@H](OC)[C@@H](C)CN(CCc1ccccc1)[C@H](C)CO2 was read as Yeast UUG start 3.8, GSIS activator -26.2 and ERp5 inh 1.0.
For COc1ccc(N2C(=O)c3cccc4cccc(c34)C2=O)cc1 the results were PDI turbidity -3.8, Yeast UUG start -8.9, NR1D1 modulator 27.9*, GSIS activator 1.3, SMARCA2 act 0.9, ERp5 inh -2.4 and Rev-erbA confirm 25.5*.
Screening COc1ccc(N2C(=O)c3cccc4c(N(C)CCO)ccc(c34)C2=O)cc1 returned PDI turbidity 7.3, Yeast UUG start -7.7, NR1D1 modulator 41.6*, GSIS activator -8.8, SMARCA2 act -0.2, ERp5 inh -2.5, Rev-erbA confirm 36.5* and RORg DNA counter >40.
`O=C(NC1CCCCC1)N1CC(=O)N2[C@H](C1)[C@H](c1ccc(-c3cccnc3)cc1)[C@@H]2CO` gave GSIS activator -4.9 and ERp5 inh -0.5.
CN(C)CC(=O)N1[C@H](C#N)[C@@H](c2ccc(/C=C/c3ccccc3)cc2)[C@H]1CO was read as Yeast UUG start 3.9, GSIS activator 0.6 and ERp5 inh -4.6.

By substructure, those above with a nitro group on carbon
Screening O=[N+]([O-])c1ccc2c(c1)Cc1cc(F)ccc1-2 returned PDI turbidity -0.6, Yeast UUG start -12.4, NR1D1 modulator 70.2*, GSIS activator 6.6, SMARCA2 act -3.3, ERp5 inh -3.5, Rev-erbA confirm 61.0* and RORg DNA counter >40.
O=C(Nc1ccc2c(c1)Cc1cc([N+](=O)[O-])ccc1-2)C(F)(F)F was read as PDI turbidity -1.5, Yeast UUG start 8.4, NR1D1 modulator 9.1, SMARCA2 act -1.2 and ERp5 inh 9.5.
For COc1cc2c(cc1[N+](=O)[O-])-c1ccc([N+](=O)[O-])cc1C2 the results were PDI turbidity 0.0, Yeast UUG start -8.5, NR1D1 modulator 89.6*, SMARCA2 act 0.4, ERp5 inh -0.7 and Rev-erbA confirm 12.4*.
